In PubChem BioAssay (Tox21):
The list shows a part of the results, in another mix than the full data. Results filed as inconclusive are left out. Some compounds were tested as several samples or in several runs, with calls that do not always agree. Calls of active or inactive are those of the source. The call rests on the fitted dose curve; in most records, active means well fitted cell-killing curve with a large enough effect in the repeat runs; inconclusive means weak or mixed curves, or effect the other way; inactive means flat fitted curve, though single readings scatter.
On the % scale 0 is the no-effect control and ±100 the full control effect; potency means the concentration at half of the fitted maximal effect.

Test: cAMP Responsive Elements (CRE) small molecule agonists, cell-based qHTS assay: qHTS cell viability counter screen (AID 2060914);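 further: viability read after 3 h of compound exposure; nearly all actives have a fitted effect of over 50% in size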
Conditions: CRE-bla HEK293T viability, CellTiter-Glo luminescence, 5 h; series mostly up to 92.4 µM; activity change, negative = cytotoxicity: at the top concentration
From the text: National Center for Advancing Translational Sciences [NCATS]
Division of Preclinical Innovation [DPI]
U.S. Environmental Protection Agency [EPA]
National Institutes of Environmental Health Sciences [NIEHS]
National Toxicology Program [NTP]
U.S. Food and Drug Administration [FDA]
CREB (cyclic-AMP Responsive Element Binding Protein) is a cellular transcription factor. It binds to certain DNA sequences called cAMP Responsive Elements (CRE) and regulates the transcription of the genes. […] This cell line can be used to find agonists/antagonists of the cyclic AMP signaling pathway. The activation of the report gene under culture conditions can be detected by fluorescence intensity. This cell line has been used to screen the Tox21 10K compound library to identify agonists that induce oxidative stress. The cytotoxicity of the Tox21 compound library against the CRE-bla cell line was tested in parallel by measuring the cell viability using CellTiter-Glo assay (Promega, Madison, WI) in the same wells.
Tox21 Assay Protocol Summary:
CRE-bla Hek 293T cells were suspended in assay medium (DMEM containing 10% dialyzed FBS, 0.1 mM NEAA, 1 mM sodium pyruvate and 25 mM HEPES) and dispensed at 2,000 cells/5 uL /well into 1536-well black wall/clear bottom plates using a Multidrop Combi (ThermoFisher Scientific, Waltham, MA) dispenser. After the assay plates were incubated at 37 C/5% CO2 for 18 hrs, 23 nL of compounds dissolved in DMSO, positive controls or DMSO only was transferred to the assay plate by a pintool workstation (Kalypsys, San Diego, CA). After the plates were incubated at 37 C/5% CO2 for 3 hrs, 1 uL of LiveBLAzer B/G FRET substrate (Invitrogen, Carlsbad, CA) was added to each well using Bioraptr Flying Reagent Dispenser (FRD, Aurora Discovery, San Diego, CA). The plates were incubated at room temperature for 2 h, then fluorescence intensities were measured using an Envision plate reader (PerkinElmer, Shelton, CT) at Excitation 405nm, Emission 460nm and 530nm. The % activity was determined from the ratio of 460nm/530nm. For cell viability readout that measures cytotoxicity, 4 uL /well of CellTiter-Glo reagent was added into the assay plates using Bioraptr FRD. After 30 min incubation at room temperature, the luminescence intensity in the assay plates was measured using a ViewLux (PerkinElmer, Shelton, CT) plate reader.
With COP(=S)(Cl)OC the “activity change, negative = cytotoxicity” value was inactive: -0.762%.
With O=P(Cl)(Oc1ccccc1)Oc1ccccc1 the “activity change, negative = cytotoxicity” value was inactive: 18%.
For CCCCO[P+](=O)OCCCC, the Potency was “inactive”.
For O=[P+](Oc1ccccc1)Oc1ccccc1, the “activity change, negative = cytotoxicity” value was inactive: 21.4%.
In the case of O=[N+]([O-])c1ccc(S(=O)(=O)O)c([N+](=O)[O-])c1, the Potency is reported as active: 0.869 µM.
With COC(=O)Cl the “activity change, negative = cytotoxicity” value was inactive: 2.3%.
With CC(C)CCCCCCCOP(OCCCCCCCC(C)C)Oc1ccccc1 the “activity change, negative = cytotoxicity” value was inactive: 11.3%.
In the case of O=P(Cl)(Cl)c1ccccc1, the “activity change, negative = cytotoxicity” value is reported as inactive: -5.49%.
In the case of O=C1C2CC=CCC2C(=O)N1SC(Cl)(Cl)C(Cl)Cl (configuration not stated), the Potency is reported as “inactive”.
With CN(C(=O)Cc1ccccc1)[C@H]1CC[C@@]2(CCCO2)C[C@@H]1N1CCCC1 the “activity change, negative = cytotoxicity” value was inactive: -0.276% [at 42.5 µM].
For CN(C(=O)Cc1cccc2occc12)[C@H]1CC[C@@]2(CCCO2)C[C@@H]1N1CCCC1, the “activity change, negative = cytotoxicity” value was inactive: 2.5%.
In the case of O=C(Cl)OCCOC(=O)Cl, the “activity change, negative = cytotoxicity” value is reported as inactive: 4.02%.
With O=[N+]([O-])c1ccc([N+](=O)[O-])cc1 the “activity change, negative = cytotoxicity” value was inactive: -20.4%.
With CN(C(=O)Cc1ccc(Cl)c(Cl)c1)[C@H]1CC[C@@]2(CCCO2)C[C@@H]1N1CCCC1 the “activity change, negative = cytotoxicity” value was inactive: -0.778% [at 42.5 µM].
For O=C(Cl)Oc1ccccc1, the “activity change, negative = cytotoxicity” value was inactive: -14%.
In the case of Cc1cc([N+](=O)[O-])cc([N+](=O)[O-])c1O, the “activity change, negative = cytotoxicity” value is reported as inactive: 2.75%.
For CCNC(C)Cc1ccc2c(c1)OCO2 (configuration not stated), the “activity change, negative = cytotoxicity” value was inactive: -13.9%.
With NC(=O)Nc1ccc([As](=O)(O)O)cc1 the Potency was “inactive”.
In the case of CCC(C)(OOC(C)(C)C)OOC(C)(C)C, the activity change, negative = cytotoxicity is reported as inactive: 10% [at 18.9 µM].
With CCCCOP(OCCCC)OCCCC the “activity change, negative = cytotoxicity” value was inactive: 6.49%.
For CCCCC(CC)CO[P+](=O)OCC(CC)CCCC (configuration not stated), the “activity change, negative = cytotoxicity” value was inactive: 1.64%.
For CCCCCCCCCCCCCC[P+](CCCCCC)(CCCCCC)CCCCCC, the Potency was active: 54.3 µM.
For O=[p+]1oc2ccccc2c2ccccc21 (configuration not stated), the “activity change, negative = cytotoxicity” value was inactive: 0.954%.
For CCOP(=S)(CC)Sc1ccccc1 (configuration not stated), the “activity change, negative = cytotoxicity” value was inactive: -13.6%.
For CC(C)OP(=S)(OC(C)C)SCCNS(=O)(=O)c1ccccc1, the “activity change, negative = cytotoxicity” value was inactive: -19.1%.
For Cc1cc([N+](=O)[O-])c(O)c([N+](=O)[O-])c1, the “activity change, negative = cytotoxicity” value was inactive: -3.51%.
With CN(N=O)C(=N)N[N+](=O)[O-] the “activity change, negative = cytotoxicity” value was inactive: 10.8%.
